This note sets out measurements from US11180452B2, “Methods and compositions for selectively inhibiting pathogenic microbes” (priority 2019, dated 2021).

For the assay, the system named is branched chain amino acid synthesis pathway gene ILVB. The assay is described as follows: RNA sequencing / transcriptomic and metabolic studies.

For the compound `Brc1ccc2[nH]cc(Sc3ccccc3Br)c2c1` [Compound 174I, 5-bromo-3-((2-bromophenyl)thio)-1H-indole], the “mechanism of action by transcriptomic and metabolic studies” value was “branched chain amino acid biosynthesis inhibition”.
Consider `Nc1ccccc1Sc1c[nH]c2ccc(Br)cc12` [Compound 174M, 2-((5-bromo-1H-indol-3-yl)thio)aniline], for which the “mechanism of action by transcriptomic and metabolic studies” value is listed as “branched chain amino acid biosynthesis inhibition”.
